Several values for one entry are separate records, joined by “and”; a condition that tells them apart may be missing. Equal entries are not always repeated.
System: HCT116 p53WT
Assay: Cell growth inhibition (WST-8), HCT116 p53WT;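 note: compound exposure of the cells lasted 4 days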
Format: cell-based
Conditions: read-out: HCT116 p53WT IC50, individual determinations and mean ± SD lines, tested form: HCl

Compound: O=C(NCCC(O)CO)C1NC(Cc2ccccc2)C2(C(=O)Nc3cc(Cl)c(F)cc32)C1c1ccc(F)c(Cl)c1 (stereo not shown)
- IC50: 15.5 µM and 8.51 µM
